Test results: patent US12522635B2, “Amyloid peptide variants” (Loyola Marymount University, priority 2019, dated 2026)

Target: T1, human IAPP (hIAPP) (Homo sapiens, UniProt P10997)
T1 construct: This 37 amino acid polypeptide is co-secreted from pancreatic β-islet cells with insulin
T1 sequence (P10997 34-70 limits assumed): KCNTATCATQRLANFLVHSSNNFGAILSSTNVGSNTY
Experiment: Thioflavin T binding assay of hIAPP aggregation when mixed with IAPP peptides
Assay type: biochemical
Conditions: peptide mixed with hIAPP; no single assay (thioflavin T and AFM)
Text: Any of a number of assays known to the art can be used to evaluate the ability of IAPP peptides to inhibit hIAPP aggregation and/or protect cells from hIAPP toxicity. Thioflavin T (ThT) binding is one such technique for identifying amyloid formation in real time. Human IAPP is known to bind thioflavin T during aggregation and amyloid formation, and upon binding to amyloid fibrils ThT will give a strong fluorescence signal at approximately 482 nm when excited at 450 nm. ThT fluorescence correlates linearly with amyloid concentration in a sample and therefore can be used to determine the amount of aggregation in a sample. […] Determining the extent of aggregation can also be determined using other techniques, such as Atomic Force Microscopy (AFM), which can provide information about particle dimensions, shape, and substructure with nanometer resolution. In the foregoing assays and others that can be used by one of skill in the art, significant inhibition can be determined using a t-test by measuring the difference between hIAPP and hIAPP combined with an IAPP peptide. […]
37 μM human IAPP was mixed with 75 μM of each indicated animal IAPP. […] Thioflavin T fluorescence emission was then recorded at 488 nm using a Hitachi F-7000 fluorescence spectrophotometer. […]

inhibition of hIAPP aggregation (summary statement): able to inhibit such aggregation
Structure (SMILES): CC[C@H](C)[C@H](NC(=O)[C@H](C)NC(=O)CNC(=O)[C@H](CC(C)C)NC(=O)[C@H](CC(N)=O)NC(=O)[C@H](CC(N)=O)NC(=O)[C@H](CO)NC(=O)[C@H](CO)NC(=O)[C@H](CCCNC(=N)N)NC(=O)[C@@H](NC(=O)[C@H](CC(C)C)NC(=O)[C@H](Cc1ccccc1)NC(=O)[C@H](CC(N)=O)NC(=O)[C@H](C)NC(=O)[C@H](CC(C)C)NC(=O)[C@H](CCCNC(=N)N)NC(=O)[C@H](CCC(N)=O)NC(=O)[C@@H](NC(=O)[C@H](C)NC(=O)[C@@H]1CSSC[C@H](NC(=O)[C@@H](N)CCCCN)C(=O)N[C@@H](CC(N)=O)C(=O)N[C@@H]([C@@H](C)O)C(=O)N[C@@H](C)C(=O)N[C@@H]([C@@H](C)O)C(=O)N1)[C@@H](C)O)C(C)C)C(=O)N[C@@H](CC(C)C)C(=O)N[C@@H](CO)C(=O)N1CCC[C@H]1C(=O)N[C@H](C(=O)N[C@@H](CC(N)=O)C(=O)N[C@H](C(=O)NCC(=O)N[C@@H](CO)C(=O)N[C@@H](CC(N)=O)C(=O)N[C@H](C(=O)N[C@@H](Cc1ccc(O)cc1)C(N)=O)[C@@H](C)O)C(C)C)[C@@H](C)O [seal IAPP]
